Measured values taken from ChEMBL document CHEMBL1135928, “Binding mode analysis of 3-(4-benzoyl-1-methyl-1H-2-pyrrolyl)-N-hydroxy-2-propenamide: a new synthetic histone deacetylase inhibitor inducing histone hyperacetylation, growth inhibition, and terminal cell differentiation” (J Med Chem, 2002).

Sequences of proteins named here, by UniProt entry; tags and fusion partners are left off.
UniProt O09106, whole entry: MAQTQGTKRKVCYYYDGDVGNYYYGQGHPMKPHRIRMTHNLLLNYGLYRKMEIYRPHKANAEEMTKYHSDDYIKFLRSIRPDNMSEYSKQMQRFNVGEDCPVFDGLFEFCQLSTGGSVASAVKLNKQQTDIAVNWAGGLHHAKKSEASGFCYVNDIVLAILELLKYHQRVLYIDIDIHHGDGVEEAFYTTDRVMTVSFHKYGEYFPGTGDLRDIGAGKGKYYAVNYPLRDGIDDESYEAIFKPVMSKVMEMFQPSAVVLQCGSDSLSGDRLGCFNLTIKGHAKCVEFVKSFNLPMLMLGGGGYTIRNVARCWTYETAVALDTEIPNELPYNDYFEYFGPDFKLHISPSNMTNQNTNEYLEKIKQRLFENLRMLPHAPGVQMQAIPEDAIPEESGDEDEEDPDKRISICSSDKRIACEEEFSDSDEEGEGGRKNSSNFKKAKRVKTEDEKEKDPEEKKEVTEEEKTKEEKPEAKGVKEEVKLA

Key:
Histone deacetylase 1 [1] = target: T1, Histone deacetylase 1 (Mus musculus, UniProt O09106); assay: Binding affinity towards HDAC1 (Histone deacetylase 1) in mouse A20 cells, expressed as binding constant (pKi); format: cell-based
Histone deacetylase HD2 = target: T2, Histone deacetylase HD2 (Zea mays, UniProt Q94F81); assay: In vitro for anti-HD2 (Histone deacetylase 2) activity in maize
T2 sequence (Q94F81 whole entry): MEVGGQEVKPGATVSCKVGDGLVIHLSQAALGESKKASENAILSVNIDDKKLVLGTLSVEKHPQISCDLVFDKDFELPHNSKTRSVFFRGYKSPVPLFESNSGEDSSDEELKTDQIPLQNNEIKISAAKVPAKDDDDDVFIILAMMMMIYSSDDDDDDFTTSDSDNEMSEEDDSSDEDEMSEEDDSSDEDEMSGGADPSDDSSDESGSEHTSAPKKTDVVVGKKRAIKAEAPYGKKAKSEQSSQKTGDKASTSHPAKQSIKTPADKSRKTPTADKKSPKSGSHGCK

Histone deacetylase 1 [2] = target: T1, Histone deacetylase 1; assay: In vitro for anti-HDAC1 (Histone deacetylase 1) activity in mouse A20 cells; format: cell-based

Ki (Histone deacetylase 1 [1])	IC50 (Histone deacetylase HD2)	IC50 (Histone deacetylase 1 [2])	Compound
67.6 nM			O=C(CCCCCCC(=O)Nc1ccccc1)NO [VORINOSTAT]
	7 nM	2 nM	CC(/C=C/C(=O)NO)=C\[C@@H](C)C(=O)c1ccc(N(C)C)cc1 [TRICHOSTATIN]
